Assay results reported in ChEMBL document CHEMBL1139680, “2,4-Disubstituted piperidines as selective CC chemokine receptor 3 (CCR3) antagonists: synthesis and selectivity” (Bioorg Med Chem Lett, 2006).

Species on record: Homo sapiens
Experiment: Selectivity for CCR3 over 5HT2A

## CCCN1CC[C@@H](Cc2ccc(F)cc2)C[C@@H]1CCCNC(=O)Nc1cccc(C(C)=O)c1
  Selectivity ratio: 170
